This data set is classed as physicochemical. Here is the method: Val^8-GLP-1(7-37)OH (1 gram) lyophilized powder was dissolved in 25 mM ammonium bicarbonate, pH 8.0 (100 ml). The solution was stirred with a TEFLON stir bar at about 200 rpm at 21° C. (ambient temperature) for 16 hours. At varying times, usually within 30 minutes, the solution became hazy. On continued stirring, the haze became visibly more dense. The kinetics of the turbidity were measured by rate of formation of turbidity, i.e. absorbance at 340 nm. The precipitated protein was harvested either by filtration, e.g. Whatman 1 filter disc, or centrifugation. The supernatant was assayed for protein content either by Biuret Colorimetric Assay obtained from Pierce (Rockford, Ill.) or UV absorbance at 280 nm. By either method, the protein precipitate constituted in excess of 90% of the starting material, i.e. there was less than 10% of the protein remaining in the supernatant fraction. The collected precipitate was dried in vacuo, i.e. in a lyophilizer. The resultant precipitated (0.96 grams) material was soluble in 20 mM phosphate at pH 7.2 at less than 0.01 mg/ml. Solubility was tested by suspension of the solid in the buffer, adjustment of pH, if necessary, and filtration through a 0.2 micron filter. The protein content of the filtrate was tested by either Biuret Colorimetric Assay, UV absorbance at 280 nm, or by high pressure liquid chromatography analysis (HPLC) analysis. […]

SMILES strings stand for the structures. Read-outs that look alike come from different tables or passages of the source.

As usually defined, the solubility is the concentration that dissolves in the medium under given conditions. Higher therefore signals a readily soluble substance. `CC[C@H](C)[C@H](NC(=O)[C@H](Cc1ccccc1)NC(=O)[C@H](CCC(=O)O)NC(=O)[C@H](CCCNC(=N)N)NC(=O)[C@H](C)NC(=O)[C@H](C)NC(=O)[C@H](CCC(N)=O)NC(=O)CNC(=O)[C@H](CCC(=O)O)NC(=O)[C@H](CC(C)C)NC(=O)[C@H](Cc1ccc(O)cc1)NC(=O)[C@H](CO)NC(=O)[C@H](CO)NC(=O)[C@@H](NC(=O)[C@H](CC(=O)O)NC(=O)[C@H](CO)NC(=O)[C@@H](NC(=O)[C@H](Cc1ccccc1)NC(=O)[C@@H](NC(=O)CNC(=O)[C@H](CCC(=O)O)NC(=O)[C@H](C)NC(=O)CCc1c[nH]cn1)[C@@H](C)O)[C@@H](C)O)C(C)C)C(=O)N[C@@H](C)C(=O)N[C@@H](Cc1c[nH]c2ccccc12)C(=O)N[C@@H](CC(C)C)C(=O)N[C@H](C(=O)N[C@@H](CCCCN)C(=O)NCC(=O)N[C@@H](CCCNC(=N)N)C(=O)NCC(=O)O)C(C)C` [isopropylimidazole^7-arginine^26-GLP-1(8-37)OH] displayed a solubility (solubility) of under 100 µg/mL and a solubility (solubility (usually)) of under 50 µg/mL.

The values above are taken from US8455433B2, “Process for solubilizing glucagon-like peptide 1 compounds” (Eli Lilly and Company, priority 2000, dated 2013).
